# Experimental data from patent US11045520B2, “Compositions and methods for topical delivery of pharmaceutical agents” (priority 2016, dated 2021).
# Key:
# [1] = test system: human skin explants or xenograted human skin; assay: Confocal imaging of fluorescent dye distribution in ETA-desquamated skin (Example 2); conditions: ETA 100 μg/mL treated vs untreated skin
# Procedure: Human skin samples were fixed in 10% formaldehyde overnight and then embedded in paraffin. Samples were cut using a microtome to a thickness of 6 μM and baked on slides for 1 hour in a dry heat incubator at 58° C. Nuclei and eosinophillic structures were visualized by hematoxylin and eosin staining, respectively. The hematoxylin stains nuclei blue and eosins stains eosinophillic structures different shades of red. Histological images were taken with an inverted microscope.
# The skin was either subjected to no treatment or application of ETA at 100 μg/mL.
# To image the distribution of each dye in the human skin, human skin specimens were collected at 6, 12, 18 and 24 hours. Ordinary skin with intact S.C. and desquamated skin using ETA (methods previously described) were used. Frozen sections of human skin specimens were cut using a microtome to a thickness of 7 μM and DAPI was used for counter staining. Skin imaging was carried out at room temperature using Nikon confocal microscope equipped with NIS-Elements AR 3.10 software.
# human skin = assay: Franz cell diffusion apparatus assay, ETA-treated vs control skin (Example 3); assay type: in vitro ADME; conditions: ETA-treated human skin compared to non-treated control, 24 hours
# Procedure: To quantify the delivery efficacy after ETA application, Franz cell assays were performed pertaining to fluoresceine, sulforhodamine B, dextran (3K), and human insulin (5K). Permeation experiments with Franz diffusion cells were performed using human skin. The Franz diffusion cells were made of glass with a contact area of 1.35 cm^2, consisting of a donor compartment and a receptor compartment. The skin was mounted between the cell compartments and 2 O-ring shaped glasses were used to position the skin epidermis side-up and dermis side-down. The two cell compartments were held together with a clamp. […] It was kept at 37° C. on a heated plate. After 30 minutes of equilibration of the skin with the receptor solution, 200 μl of the drug solution was applied in the donor compartment with a pipet. The donor compartment was then covered with parafilm to prevent evaporation of the solvent. The receptor solution was continuously stirred using a spinning bar magnet at 200 rpm. Receptor solution samples, 0.2 ml aliquots, were withdrawn through the sampling port of the receptor compartment at various time intervals. The cells were refilled with a same amount of receptor solution to keep the volume of receptor solution constant during the experiment. The experiments were run for 24 hours. […]
substance,measurement,setting,value
Dextran,skin permeability after removal of S.C. by ETA,[1],substantially increased
same,"skin permeability, fluorescence in receptor compartment",human skin,increase in skin permeability
